Data on 2 compounds can be found in paper PMC4844587, “PET imaging of cyclooxygenase-2 (COX-2) in a pre-clinical colorectal cancer model” (EJNMMI Research, 2016).

For assay [1], the system named is HCA-7 cells. The assay can be described thus: cells. The note with it: Homo sapiens, HCA-7, read-out: Inhibition of radiotracer uptake.
The subject of assay [2] is HCA-7 cells. The note with it: 10 and 100 μM.

Turning to `CS(=O)(=O)c1ccc(-c2cc(C(F)(F)F)nc(NCc3ccc(F)cc3)n2)cc1` [Pyricoxib, N-(4-fluorobenzyl)-4-[4-(methylsulfonyl)-phenyl]-6-(trifluoro-methyl)pyrimidin-2-amine], in the assay with HCA-7 cells [1], the inhibition (in general, the share of the control response that was lost under treatment) at 10 µM amounted to 35% and the inhibition at 100 µM was determined as 50%.
Regarding `CS(=O)(=O)c1ccc(-n2nc(C(F)(F)F)cc2-c2ccc(F)cc2)cc1` [SC58125], the “Blocking of [^18F]Pyricoxib uptake” value in the assay with HCA-7 cells [2] is “blocked uptake of [^18F]Pyricoxib in HCA-7 cells in a concentration-dependent manner”.
